Source: patent US11065231B2, “Compounds and methods for the targeted degradation of interleukin-1 receptor- associated kinase 4 polypeptides” (Arvinas Operations, Inc., priority 2017, dated 2021)

Chains of the proteins cited; added tags and fusions are not shown.
UniProt Q9NWZ3, whole entry: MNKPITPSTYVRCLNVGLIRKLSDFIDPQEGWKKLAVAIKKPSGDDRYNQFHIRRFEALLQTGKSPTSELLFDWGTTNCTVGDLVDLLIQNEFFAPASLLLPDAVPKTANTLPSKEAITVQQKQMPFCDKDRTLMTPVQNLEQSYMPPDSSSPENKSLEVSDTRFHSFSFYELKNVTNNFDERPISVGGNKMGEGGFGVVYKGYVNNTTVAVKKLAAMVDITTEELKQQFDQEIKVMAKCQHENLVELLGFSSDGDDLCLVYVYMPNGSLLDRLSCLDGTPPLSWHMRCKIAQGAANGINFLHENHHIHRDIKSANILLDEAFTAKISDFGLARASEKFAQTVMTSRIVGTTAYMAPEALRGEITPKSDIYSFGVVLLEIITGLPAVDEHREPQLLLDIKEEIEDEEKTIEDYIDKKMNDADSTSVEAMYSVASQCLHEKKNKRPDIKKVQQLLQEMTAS
UniProt P51617, whole entry: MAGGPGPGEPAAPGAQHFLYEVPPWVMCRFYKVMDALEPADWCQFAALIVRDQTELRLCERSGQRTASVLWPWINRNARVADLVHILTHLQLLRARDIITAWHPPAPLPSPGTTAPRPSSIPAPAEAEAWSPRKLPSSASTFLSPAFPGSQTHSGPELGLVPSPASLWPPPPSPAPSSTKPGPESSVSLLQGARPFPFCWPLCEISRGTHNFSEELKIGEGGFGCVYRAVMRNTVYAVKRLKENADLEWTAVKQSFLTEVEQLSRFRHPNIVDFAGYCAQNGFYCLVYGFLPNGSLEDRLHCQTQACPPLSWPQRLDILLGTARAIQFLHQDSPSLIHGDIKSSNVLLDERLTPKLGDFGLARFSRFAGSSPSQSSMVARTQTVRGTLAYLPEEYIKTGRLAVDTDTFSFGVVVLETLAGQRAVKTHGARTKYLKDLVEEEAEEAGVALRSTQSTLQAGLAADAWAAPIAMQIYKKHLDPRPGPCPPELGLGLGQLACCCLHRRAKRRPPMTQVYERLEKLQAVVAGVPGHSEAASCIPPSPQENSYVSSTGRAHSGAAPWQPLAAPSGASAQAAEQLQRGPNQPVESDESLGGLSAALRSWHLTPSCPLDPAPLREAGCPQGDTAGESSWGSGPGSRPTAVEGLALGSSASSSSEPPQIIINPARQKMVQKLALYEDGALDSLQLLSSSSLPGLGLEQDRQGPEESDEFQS

Experiments:
IRAK4 = IRAK4 (Homo sapiens (Human), UniProt Q9NWZ3); test: Western blots of IRAK4 protein degradation; type: cell-based; conditions: from western blots
IRAK1 = IRAK1 (Homo sapiens (Human), UniProt P51617); test: Western blots of IRAK1 protein degradation; type: cell-based

Dmax (IRAK4): 80%
degradation of IRAK1 (IRAK1): no significant degradation was observed
SMILES: O=C1CCC(N2C(=O)c3ccc(OCCOCCOCCN4CCN(Cc5ccc6c(c5)nc(NC(=O)c5cccc(C(F)(F)F)c5)n6[C@H]5CC[C@@H](CO)CC5)CC4)cc3C2=O)C(=O)N1 (some centres unmarked) [compound 3, N-(5-((4-(2-(2-(2-((2-(2,6-dioxopiperidin-3-yl)-1,3-dioxoisoindolin-5-yl)oxy)ethoxy)ethoxy)ethyl)piperazin-1-yl)methyl)-1-((1s,4s)-4-(hydroxymethyl)cyclohexyl)-1H-benzo[d]imidazol-2-yl)-3-(trifluoromethyl)benzamide]
